Measurements: US20140038974A1, “Compositions and Methods for Eye Whitening” (Eye Therapies, LLC, priority 2009, published 2014)

Assay: Log P (Table 1)
Assay type: physicochemical

Which “Log P” value does the source give for guanfacine here?
Its value is 1.00.
